Screens: PubChem, Broad Institute
Rows were chosen to be rich in hits. Some 1.5% of all compounds tested hit in one or more screens of this group.
HIV Env fusion: HIV envelope-mediated fusion inhibition | HeLa-JRFL Env/CEM21 cell fusion, luciferase | inhibition, % at 12.3 µM | actives 1.1% (n = 360,000) | AID 651610;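 active = mean replicate inhibition score of at least 50 and every replicate individually at or above 50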
FN deposition inh: fibronectin deposition inhibition; AID 743247; AH1F fibroblasts, Alexa488-fibronectin deposition fluorescence, overnight; inhibition, % at 12.6 µM; actives 0.086% (n = 350,000);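 active = mean inhibition across replicates of 30% or more, regardless of how many single replicates reach that level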
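test system = AH1F fibroblasts assembling fluorescent fibronectin matrix | quantity = 10000 AH1F cells per well | buffer or medium = DMEM plus 2% serum, read in PBS | doses = single dose, pinned | incubation = 1 h cell attachment, overnight exposure to compound and label | detection = fluorescence at 485 nm excitation, 525 nm emission | read-out basis = inhibition from reduced deposited-fibronectin fluorescence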
UUG fidelity: modulators of start codon recognition fidelity in yeast; AID 602363; activity score, % at 18.7 µM; S. cerevisiae UUG-firefly luciferase reporter, luminescence/redox ratio; actives 0.13% (n = 350,000);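 active = replicate mean at a twofold rise or more, about +100% in these data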;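 note: firefly luciferase made from a UUG start codon reports start codon fidelity; reporter light over untreated wells divided by growth signal over untreated wells; some hits fall short of that in this replicate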
miR122 inh: inhibitors of miR-122 in Huh7 cells; actives 0.3% (n = 340,000); AID 602342; Huh7 miR-122 Renilla luciferase sensor, 48 h; neutral wells = 0, positive control = 100; activation (reporter increase), % at 12.5 µM;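 active = mean replicate activation score at least 90 and every replicate individually at or above 90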;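 note: higher luciferase means less miR-122 activity so hits act as miR-122 inhibitors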
PGC1a acetyl inh: modulators of PGC1a acetylation. U2OS PGC1a acetylation, AlphaScreen anti-acetyl-lysine; with virally co-expressed GCN5 acetyltransferase. actives 0.17% (n = 350,000). inhibition, % at 15.6 µM;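 active = every replicate shows inhibition of at least 40%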
Cneo AK release: Cryptococcus neoformans lysis via adenylate kinase release; C. neoformans lysis, adenylate kinase release luminescence, 4 h; normalised: neutral wells 0, clomiphene wells 100; lysis activity, % at 15 µM; actives 0.2% (n = 360,000); AID 651654;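 active = mean lysis activity across replicates of at least 80%, whatever share of replicates individually reach that level; inactive = mean lysis activity below 80%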
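Signal: Adenylate kinase release luminescence | Assay system: Log-phase Cryptococcus neoformans yeast cells | Input: Cells at 5 × 10^6 per mL | Buffer or medium: Fresh YPD growth medium | Compound: Single dose | Schedule: Static 4 h at 37 °C with compound, 1 h detection | Controls: Clomiphene | Read-out: Luminescence rise reflecting yeast cell lysis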
Of the large screens only hits and unclear results are named; the others gave an inactive call; [ ] = dose if it differs, or a comment.

CCCCCCCCN1C(=O)[C@@H](CC(=O)NCc2cccc3ccccc23)C[C@@]2(C(=O)OC)C1=C[C@H](C(C)(C)C)O[C@@H]2C	HIV Env fusion 63 (no result: UUG fidelity, miR122 inh, PGC1a acetyl inh, Cneo AK release)
COc1ccc(-c2cc(=O)oc3c(C)c(O)c(CN(C)C)cc23)cc1	HIV Env fusion 73
CC(C)(C)c1ccc(COn2c(=O)c(-c3ccco3)[n+]([O-])c3ccccc32)cc1	none
Cc1noc(C)c1NC(=O)Nc1ccc2c(c1)C(=O)N([C@@H](C)CO)C[C@H](C)[C@H](CN(C)S(=O)(=O)c1c(C)noc1C)O2	none
C[C@@H]1CCCCO[C@@H](CN(C)C(=O)c2ccccc2)[C@H](C)CN([C@@H](C)CO)C(=O)c2cc(NC(=O)Nc3ccc(C(F)(F)F)cc3)ccc2O1	HIV Env fusion 57[16.7 µM] (no result: FN deposition inh)
C[C@H]1CCCCO[C@H](CN(C)C(=O)Nc2ccc(C(F)(F)F)cc2)[C@@H](C)CN([C@@H](C)CO)C(=O)c2cc(NC(=O)Cc3ccccc3)ccc2O1	HIV Env fusion 66[16.7 µM]
C[C@@H]1CCCCO[C@H](CN(C)C(=O)Cc2ccccc2)[C@@H](C)CN([C@@H](C)CO)C(=O)c2cc(NC(=O)Nc3ccc(C(F)(F)F)cc3)ccc2O1	HIV Env fusion 62[16.7 µM] (no result: FN deposition inh, PGC1a acetyl inh)
C[C@H]1CCCCO[C@H](CN(C)C(=O)Nc2ccc(C(F)(F)F)cc2)[C@@H](C)CN([C@@H](C)CO)C(=O)c2cc(NC(=O)Nc3ccc(C(F)(F)F)cc3)ccc2O1	none
C[C@@H]1CCCCO[C@H](CN(C)C(=O)Nc2ccc(C(F)(F)F)cc2)[C@H](C)CN([C@H](C)CO)C(=O)c2cc(NC(=O)Cc3ccccc3)ccc2O1	none (no result: FN deposition inh)
C[C@@H]1CN([C@H](C)CO)C(=O)c2cc(NC(=O)Nc3ccc(C(F)(F)F)cc3)ccc2O[C@@H](C)CCCCO[C@H]1CN(C)C(=O)Nc1ccc(C(F)(F)F)cc1	HIV Env fusion 115[16.7 µM]
COc1ccc(/C=C/C(=O)c2ccccc2)c(OC)c1	none (no result: UUG fidelity, miR122 inh, PGC1a acetyl inh, Cneo AK release)
C[C@@H]1CCCCO[C@@H](CN(C)CC2CCCCC2)[C@@H](C)CN([C@H](C)CO)C(=O)c2cc(NC(=O)CCC(F)(F)F)ccc2O1	miR122 inh 104[16.7 µM] (no result: FN deposition inh)
C[C@H]1CCCCO[C@H](CN(C)C(=O)Nc2ccc(C(F)(F)F)cc2)[C@@H](C)CN([C@@H](C)CO)C(=O)c2cc(NC(=O)Nc3ccc4c(c3)OCO4)ccc2O1	HIV Env fusion 72[16.7 µM]
C[C@@H]1CCCCO[C@@H](CN(C)CC2CCCCC2)[C@H](C)CN([C@H](C)CO)C(=O)c2cc(NC(=O)CCC(F)(F)F)ccc2O1	none (no result: FN deposition inh)
C[C@@H]1CN([C@@H](C)CO)C(=O)c2cc(NC(=O)NC3CCCCC3)ccc2O[C@@H](C)CCCCO[C@@H]1CN(C)C(=O)Cc1ccccc1	HIV Env fusion 62[16.7 µM] (no result: FN deposition inh)
C[C@H](CO)N1C[C@H](C)[C@@H](CN(C)C(=O)Nc2ccc3c(c2)OCO3)OCCCC[C@H](C)Oc2ccc(NC(=O)Nc3ccc(C(F)(F)F)cc3)cc2C1=O	none (no result: FN deposition inh)
C[C@H]1CCCCO[C@H](CN(C)C(=O)Nc2ccc(C(F)(F)F)cc2)[C@@H](C)CN([C@@H](C)CO)C(=O)c2cc(NC(=O)Nc3ccccc3)ccc2O1	HIV Env fusion 64[16.7 µM]
C[C@@H]1CCCCO[C@H](CN(C)C(=O)Nc2ccc(C(F)(F)F)cc2)[C@H](C)CN([C@@H](C)CO)C(=O)c2cc(NC(=O)Nc3ccccc3)ccc2O1	none
CCc1noc(C)c1C(=O)NNC(=O)c1ccccc1Cl	none (no result: HIV Env fusion, miR122 inh)
COc1ccc(NC(=O)N(C)C[C@@H]2OCCCC[C@@H](C)Oc3ccc(NC(=O)Nc4ccc5c(c4)OCO5)cc3C(=O)N([C@@H](C)CO)C[C@H]2C)cc1	Cneo AK release 88 (no result: FN deposition inh)
COc1ccc(NC(=O)Nc2ccc3c(c2)C(=O)N([C@H](C)CO)C[C@@H](C)[C@@H](CN(C)C(=O)CCC(F)(F)F)OCCCC[C@H](C)O3)cc1	Cneo AK release 95 (no result: FN deposition inh)
COc1ccc(NC(=O)Nc2ccc3c(c2)C(=O)N([C@H](C)CO)C[C@H](C)[C@@H](CN(C)C(=O)CCC(F)(F)F)OCCCC[C@@H](C)O3)cc1	none (no result: FN deposition inh)
